Target: Bromodomain-containing protein 4 (Homo sapiens, UniProt O60885)
Assay: Binding affinity to human BRD4 bromodomain 1 using H4Ac4 peptide by amplified luminescent proximity homogeneous assay

IC50: 371 nM
pIC50: 6.43
SMILES: CC(=O)Oc1cc(-c2c(C)noc2C)cc(C(O)c2ccccc2)c1 (racemic)

Source: ChEMBL document CHEMBL2331285, “Optimization of 3,5-dimethylisoxazole derivatives as potent bromodomain ligands” (J Med Chem, 2013)
